The results in this text go back to paper PMC8584931 (International Journal of Molecular Sciences, 2021).

SMILES strings stand for the structures.

The test system of the data set is HT-29 cells. The experiment in a line: Combination cytotoxicity, MTT and SRB assays. As to conditions: 48 h, 0.25, 0.5, 1, 2 and 4 times IV.

Take `O=c1[nH]cc(F)c(=O)[nH]1` [5-FU, 5-fluorouracil]: the “Cell viability and protein content of HT-29 cells, alone and combined with 5-FU (in words)” value was “did not show significant modulation of the viability”.
